The target of test [1] is Mu-type opioid receptor (Homo sapiens, UniProt P35372). Put plainly: Agonist activity at human mu opioid receptor expressed in CHO cells assessed as [35S]GTPgammaS binding by scintillation counting relative to control. Format: functional, cell-based. The method, boiled down:
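Membranes from CHO cells stably expressing human κ (15 μg protein/tube) or μ (7.5 μg protein/tube) opioid receptor, grown in DMEM with 10% FBS at 37 °C, 5% CO2. Twelve agonist concentrations were incubated 60 min at 30 °C in 50 mM Tris-HCl, 3 mM MgCl2, 100 mM NaCl, 0.2 mM EGTA, pH 7.4, with 3 μM GDP and [35S]GTPγS. Filtration, then scintillation counting. Stimulation expressed as percent over basal; ≥3 experiments in triplicate.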

By UniProt entry, the sequences of proteins in these tests, tags left out.
UniProt P35372, whole entry: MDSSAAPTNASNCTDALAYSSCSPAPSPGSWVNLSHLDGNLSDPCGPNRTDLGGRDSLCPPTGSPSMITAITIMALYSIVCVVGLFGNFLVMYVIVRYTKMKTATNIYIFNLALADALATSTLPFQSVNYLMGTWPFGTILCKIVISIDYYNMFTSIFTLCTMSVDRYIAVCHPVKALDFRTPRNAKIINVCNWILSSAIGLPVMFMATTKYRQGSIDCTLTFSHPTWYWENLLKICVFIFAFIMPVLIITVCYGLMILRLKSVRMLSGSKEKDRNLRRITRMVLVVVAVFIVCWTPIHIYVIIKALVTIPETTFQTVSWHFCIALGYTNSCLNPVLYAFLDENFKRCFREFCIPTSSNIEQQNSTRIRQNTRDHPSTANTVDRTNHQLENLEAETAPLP

The species named for test [2] is Homo sapiens. The test is described as follows: Selectivity ratio of Ki for human mu opioid receptor to Ki for human kappa opioid receptor.
For test [3], the species on record is Homo sapiens. The test is described as follows: Selectivity ratio of Ki for human delta opioid receptor to Ki for human kappa opioid receptor.

For the compound `CNc1nc2cc3c(cc2s1)C[C@@H]1[C@@H]2CCCC[C@]32CCN1CCCF`, the Emax in test [1] amounted to 83%. The Ratio Ki stood at 10 in test [2] and 70 in test [3].
For `CNc1nc2cc3c(cc2s1)C[C@@H]1[C@@H]2CCCC[C@]32CCN1CC1CC1` the same measures were 40%, 45 and 380.
For `CCNc1nc2cc3c(cc2s1)C[C@@H]1[C@@H]2CCCC[C@]32CCN1CC1CC1` the same measures were 100%, 31 and 280.
For `CCNc1nc2cc3c(cc2s1)C[C@@H]1[C@@H]2CCCC[C@]32CCN1CCCF` the same measures were 97%, 4 and 81.
